We go through 12 molecules from ChEMBL document CHEMBL2040723, “1,4-dioxane, a suitable scaffold for the development of novel M₃ muscarinic receptor antagonists” (J Med Chem, 2012).

Protein sequences, listed by entry. Tags and fused reporters are not part of them. Lines headed by an entry give the natural chain unless they say otherwise; changes in a name come on top.
UniProt P11229: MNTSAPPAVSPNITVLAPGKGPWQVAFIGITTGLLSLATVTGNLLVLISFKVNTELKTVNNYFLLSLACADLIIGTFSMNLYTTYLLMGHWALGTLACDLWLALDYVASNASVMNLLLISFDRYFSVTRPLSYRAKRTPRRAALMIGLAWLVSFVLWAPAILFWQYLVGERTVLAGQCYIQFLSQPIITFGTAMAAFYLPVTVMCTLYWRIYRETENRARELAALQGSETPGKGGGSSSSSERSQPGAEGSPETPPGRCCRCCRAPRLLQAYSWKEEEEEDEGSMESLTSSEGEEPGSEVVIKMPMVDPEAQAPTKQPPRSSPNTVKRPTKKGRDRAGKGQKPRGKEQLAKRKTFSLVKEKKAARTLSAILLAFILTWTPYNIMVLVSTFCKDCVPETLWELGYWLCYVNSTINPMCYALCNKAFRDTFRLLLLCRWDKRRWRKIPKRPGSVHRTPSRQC
UniProt P20309, whole entry: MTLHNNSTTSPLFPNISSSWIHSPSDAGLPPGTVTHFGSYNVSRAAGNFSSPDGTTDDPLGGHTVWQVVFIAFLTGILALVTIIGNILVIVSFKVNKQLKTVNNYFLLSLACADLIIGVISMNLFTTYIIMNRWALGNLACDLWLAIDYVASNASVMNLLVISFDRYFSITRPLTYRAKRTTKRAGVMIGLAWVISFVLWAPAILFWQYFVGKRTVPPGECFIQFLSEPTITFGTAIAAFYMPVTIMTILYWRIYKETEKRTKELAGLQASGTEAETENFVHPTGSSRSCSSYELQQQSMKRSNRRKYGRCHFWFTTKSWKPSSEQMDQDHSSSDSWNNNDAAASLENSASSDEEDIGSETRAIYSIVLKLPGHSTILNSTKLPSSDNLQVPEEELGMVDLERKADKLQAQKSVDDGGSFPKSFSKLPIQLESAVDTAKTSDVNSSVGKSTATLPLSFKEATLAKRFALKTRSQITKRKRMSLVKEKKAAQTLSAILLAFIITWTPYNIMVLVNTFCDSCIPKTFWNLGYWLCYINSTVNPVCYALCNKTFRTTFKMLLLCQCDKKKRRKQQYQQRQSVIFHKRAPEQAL
UniProt P08173, whole entry: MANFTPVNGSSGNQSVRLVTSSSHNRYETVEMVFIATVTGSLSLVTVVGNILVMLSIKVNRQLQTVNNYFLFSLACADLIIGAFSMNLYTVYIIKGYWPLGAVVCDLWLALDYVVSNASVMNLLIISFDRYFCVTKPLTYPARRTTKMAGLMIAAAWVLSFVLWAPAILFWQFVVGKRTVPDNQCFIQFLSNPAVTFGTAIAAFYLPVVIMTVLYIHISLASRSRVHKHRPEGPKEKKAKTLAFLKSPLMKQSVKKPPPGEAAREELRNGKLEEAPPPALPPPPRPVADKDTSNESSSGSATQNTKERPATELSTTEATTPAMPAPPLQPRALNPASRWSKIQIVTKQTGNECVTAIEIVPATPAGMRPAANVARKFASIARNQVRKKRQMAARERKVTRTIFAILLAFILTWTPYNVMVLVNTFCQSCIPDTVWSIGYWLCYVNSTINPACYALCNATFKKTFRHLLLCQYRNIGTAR
UniProt P08172, whole entry: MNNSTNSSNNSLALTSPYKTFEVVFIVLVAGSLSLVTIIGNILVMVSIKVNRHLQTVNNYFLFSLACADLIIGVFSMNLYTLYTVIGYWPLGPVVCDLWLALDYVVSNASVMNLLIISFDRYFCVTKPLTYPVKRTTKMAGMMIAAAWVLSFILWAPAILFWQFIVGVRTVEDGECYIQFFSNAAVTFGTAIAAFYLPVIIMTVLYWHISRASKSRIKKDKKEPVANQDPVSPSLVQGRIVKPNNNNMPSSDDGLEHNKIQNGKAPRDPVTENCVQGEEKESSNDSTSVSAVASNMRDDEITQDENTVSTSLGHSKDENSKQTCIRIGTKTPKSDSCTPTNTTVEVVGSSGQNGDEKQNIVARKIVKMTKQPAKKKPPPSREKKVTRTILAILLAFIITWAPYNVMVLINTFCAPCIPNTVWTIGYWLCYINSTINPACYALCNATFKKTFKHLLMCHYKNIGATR
UniProt P08912, whole entry: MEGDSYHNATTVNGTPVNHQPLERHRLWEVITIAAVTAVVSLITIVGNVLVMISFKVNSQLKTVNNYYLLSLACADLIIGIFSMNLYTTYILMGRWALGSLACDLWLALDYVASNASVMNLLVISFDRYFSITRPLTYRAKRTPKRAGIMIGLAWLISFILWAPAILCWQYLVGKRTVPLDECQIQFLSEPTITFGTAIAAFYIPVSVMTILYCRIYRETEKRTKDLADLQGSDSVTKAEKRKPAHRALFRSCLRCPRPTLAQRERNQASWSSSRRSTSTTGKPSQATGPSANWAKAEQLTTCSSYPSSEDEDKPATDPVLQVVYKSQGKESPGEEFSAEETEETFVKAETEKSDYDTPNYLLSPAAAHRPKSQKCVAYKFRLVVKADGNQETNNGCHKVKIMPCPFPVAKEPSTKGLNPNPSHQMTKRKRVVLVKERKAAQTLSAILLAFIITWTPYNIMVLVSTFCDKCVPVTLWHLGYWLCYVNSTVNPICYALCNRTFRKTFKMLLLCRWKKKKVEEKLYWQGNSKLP

Experiment [1] concerns the target Muscarinic acetylcholine receptor M1 (Homo sapiens, UniProt P11229). Kind of experiment: biochemical. Type of experiment: cell-based, CHO.
For experiment [2], the target named is Muscarinic acetylcholine receptor M3 (Homo sapiens, UniProt P20309). In words: biochemical. It counts as cell-based, CHO.
For experiment [3], the target named is Muscarinic acetylcholine receptor M4 (Homo sapiens, UniProt P08173). Kind of experiment: Displacement of [3H]N-methylscopolamine from human muscarinic M4 receptor expressed in CHO cells after 120 mins by scintillation counting. Type of experiment: cell-based.
The nature of experiment [4]: Antagonist activity at muscarinic M3 receptor in guinea pig ileum assessed as dissociation constant after 45 mins. Type of experiment: functional, Cavia porcellus. A digest of the protocol:
(§1)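 Isolated guinea pig tissues: left atrium (M2), ileum (M3) and lung strips (putative M4). Antagonist dissociation constants were calculated by the Furchgott method and reported as pKB, as mean ± SEM of four to six independent experiments. Agonist reference for the tissue responses was bethanechol.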

A short description of experiment [5]: Antagonist activity at muscarinic M4 receptor in guinea pig lung strips assessed as dissociation constant after 45 mins. Type of experiment: functional, Cavia porcellus. A digest of the protocol: as §1
Experiment [6] has as its target Muscarinic acetylcholine receptor M2 (Homo sapiens, UniProt P08172). Kind of experiment: Displacement of [3H]N-methylscopolamine from human muscarinic M2 receptor expressed in CHO cells after 120 mins by scintillation counting. It counts as cell-based. (Displacement assays read how much labelled ligand stays bound in the presence of the test substance.)
The target of experiment [7] is Muscarinic acetylcholine receptor M5 (Homo sapiens, UniProt P08912). In words: Displacement of [3H]N-methylscopolamine from human muscarinic M5 receptor expressed in CHO cells after 120 mins by scintillation counting. It counts as cell-based.

Some results are limits rather than exact numbers.

Usually Ki stands for a measure of affinity in units of concentration, obtained from inhibition or displacement. Higher therefore signals lower affinity. Broadly, the pKb is the negative decadic logarithm of the Kb, by convention in mol/L.

Turning to `C[N+](C)(C)C[C@@H]1COCC(c2ccccc2)(c2ccccc2)O1.[I-]`, the Ki in experiment [1] is 16.2 nM; in experiment [2], 0.0617 µM; in experiment [3], 151 nM. Besides, in experiment [4], the pKb stood at 7.22.
Take `CN(C)CC1COCC(c2ccccc2)(c2ccccc2)O1.O=C(O)C(=O)O` (racemic): the Ki in experiment [1] is 4.57 nM; in experiment [2] it was 0.00219 µM; in experiment [3], 4.9 nM.
For `CN(C)C[C@@H]1COCC(c2ccccc2)(c2ccccc2)O1.O=C(O)C(=O)O`, the Ki in experiment [1] is 35.5 nM; in experiment [2] it was 0.0724 µM; in experiment [3], 70.8 nM. The pKb was determined as 7.45 in experiment [4] and 7.24 in experiment [5].
On to `C[N+](C)(C)C[C@@H]1COC[C@@H](C(c2ccccc2)c2ccccc2)O1` (relative stereo), for which the Ki in experiment [1] is 15800 nM; in experiment [2] it was 21.4 µM.
Take `C[N+](C)(C)C[C@H]1COCC(c2ccccc2)(c2ccccc2)O1.[I-]`: the Ki in experiment [1] is 0.501 nM; in experiment [2] it was 0.00148 µM; in experiment [3], 1.48 nM.
For `C[N+](C)(C)CC1COCC(c2ccccc2)(c2ccccc2)O1.[I-]` (racemic), in that order: 0.794 nM, 0.00363 µM and 2.63 nM.
`CN(C)C[C@H]1COCC(c2ccccc2)(c2ccccc2)O1.O=C(O)C(=O)O`: the Ki in experiment [1] was 1.26 nM; in experiment [2], 0.00151 µM; in experiment [3], 2.34 nM. The pKb in experiment [4] was determined as 8.34.
As for `C[N+](C)(C)C[C@@H]1COC[C@@H](c2ccccc2)O1.[I-]` (relative stereo), the Ki in experiment [1] was 26300 nM; in experiment [6], 39.8 µM; in experiment [2] it was 31.6 µM; in experiment [7], 33.1 µM.
As to `C[N+](C)(C)C[C@@H]1COC[C@H](c2ccccc2)O1.[I-]` (relative stereo), the Ki in experiment [1] was 6760 nM; in experiment [6], 6.46 µM; in experiment [2], 9.77 µM; in experiment [7] it was 10.2 µM. Besides, the negative logarithm of the Kb (pKb) in experiment [4] is on record as 5.2.
Take `CC[C@H]1COC[C@@H](C[N+](C)(C)C)O1.[I-]` (relative stereo): the Ki is 15500 nM in experiment [1] and 17.8 µM in experiment [2].
Turning to `C[N+](C)(C)C[C@@H]1COC[C@H](C(c2ccccc2)c2ccccc2)O1` (relative stereo), the Ki is 3800 nM in experiment [1] and 8.91 µM in experiment [2].
In the same order, the values of `CC[C@@H]1COC[C@@H](C[N+](C)(C)C)O1.[I-]` (relative stereo) are above 100000 nM and 81.3 µM.
